How the values were obtained:
[1] = molecular target: isolated wild-type ecto-IR-A conjugated with mCherry (human) (UniProt P06213); assay: radioligand binding; saturation binding of the 125I-labelled ligand (0.05-5 nM) to isolated ectodomain-mCherry (300 ng/well) immobilised through its HisTag on 96-well plates by nickel-NTA iBodies with biotin on neutravidin; otherwise as the whole-cell assay; one-site specific binding fit
[2] = molecular target: whole IR-A Arg717Lys transfected to R- cells (human) (UniProt P06213); assay: radioligand binding; saturation binding of the 125I-labelled ligand (0.05-3 nM) to R- cells 24 h after transfection with the whole receptor; 16 h at 5°C; 100 mM HEPES/NaOH pH 7.6, 100 mM NaCl, 5 mM KCl, 1.3 mM MgSO4, 1 mM EDTA, 10 mM glucose, 15 mM sodium acetate, 1% BSA; non-specific binding (1 uM unlabelled ligand) subtracted; one-site specific binding fit
[3] = molecular target: whole IR-A Arg717Gln transfected to R- cells (human) (UniProt P06213); assay: as above
[4] = molecular target: whole wild-type IR-A transfected to R- cells (human) (UniProt P06213); assay: as above

Chains of the proteins cited; added tags and fusions are not shown. A line that says so, or that is headed by a name, gives the form on record, which may keep a tag or linker.
UniProt P06213, other isoform, or with tags, fused parts or gaps R717K: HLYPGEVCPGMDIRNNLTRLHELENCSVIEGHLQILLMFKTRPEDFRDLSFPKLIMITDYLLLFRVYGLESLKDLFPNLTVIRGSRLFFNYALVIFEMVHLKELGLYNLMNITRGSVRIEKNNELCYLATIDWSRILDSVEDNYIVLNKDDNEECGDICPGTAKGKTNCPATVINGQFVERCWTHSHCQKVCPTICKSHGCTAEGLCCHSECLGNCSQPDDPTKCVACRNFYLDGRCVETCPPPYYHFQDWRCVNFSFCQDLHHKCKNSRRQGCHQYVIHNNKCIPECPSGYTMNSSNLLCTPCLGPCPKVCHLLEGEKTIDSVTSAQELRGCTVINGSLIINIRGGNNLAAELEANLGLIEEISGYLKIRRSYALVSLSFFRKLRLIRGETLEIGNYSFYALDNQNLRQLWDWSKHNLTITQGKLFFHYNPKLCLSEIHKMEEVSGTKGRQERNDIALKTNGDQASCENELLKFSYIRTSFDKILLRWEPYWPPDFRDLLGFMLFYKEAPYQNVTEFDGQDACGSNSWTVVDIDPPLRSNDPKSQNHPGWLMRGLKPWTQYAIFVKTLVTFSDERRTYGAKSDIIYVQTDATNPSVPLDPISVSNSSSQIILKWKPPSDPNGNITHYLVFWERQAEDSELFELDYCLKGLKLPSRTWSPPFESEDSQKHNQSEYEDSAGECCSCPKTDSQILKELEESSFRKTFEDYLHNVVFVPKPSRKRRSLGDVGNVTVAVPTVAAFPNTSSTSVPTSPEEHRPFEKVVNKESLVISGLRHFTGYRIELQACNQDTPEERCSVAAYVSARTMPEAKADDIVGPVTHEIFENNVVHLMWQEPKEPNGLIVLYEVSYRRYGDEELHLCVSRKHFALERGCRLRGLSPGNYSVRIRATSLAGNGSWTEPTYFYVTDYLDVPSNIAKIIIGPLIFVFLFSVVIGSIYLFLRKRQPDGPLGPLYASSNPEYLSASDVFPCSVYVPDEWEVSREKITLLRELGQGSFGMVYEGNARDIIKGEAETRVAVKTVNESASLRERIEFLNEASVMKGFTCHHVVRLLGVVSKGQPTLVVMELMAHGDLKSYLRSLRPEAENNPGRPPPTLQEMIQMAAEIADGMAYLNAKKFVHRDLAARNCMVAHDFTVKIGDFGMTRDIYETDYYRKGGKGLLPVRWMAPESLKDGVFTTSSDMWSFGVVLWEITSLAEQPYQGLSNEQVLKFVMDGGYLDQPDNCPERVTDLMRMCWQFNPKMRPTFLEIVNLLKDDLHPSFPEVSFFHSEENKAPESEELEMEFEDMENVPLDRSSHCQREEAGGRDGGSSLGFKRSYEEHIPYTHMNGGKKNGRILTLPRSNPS
UniProt P06213, other isoform, or with tags, fused parts or gaps R717Q: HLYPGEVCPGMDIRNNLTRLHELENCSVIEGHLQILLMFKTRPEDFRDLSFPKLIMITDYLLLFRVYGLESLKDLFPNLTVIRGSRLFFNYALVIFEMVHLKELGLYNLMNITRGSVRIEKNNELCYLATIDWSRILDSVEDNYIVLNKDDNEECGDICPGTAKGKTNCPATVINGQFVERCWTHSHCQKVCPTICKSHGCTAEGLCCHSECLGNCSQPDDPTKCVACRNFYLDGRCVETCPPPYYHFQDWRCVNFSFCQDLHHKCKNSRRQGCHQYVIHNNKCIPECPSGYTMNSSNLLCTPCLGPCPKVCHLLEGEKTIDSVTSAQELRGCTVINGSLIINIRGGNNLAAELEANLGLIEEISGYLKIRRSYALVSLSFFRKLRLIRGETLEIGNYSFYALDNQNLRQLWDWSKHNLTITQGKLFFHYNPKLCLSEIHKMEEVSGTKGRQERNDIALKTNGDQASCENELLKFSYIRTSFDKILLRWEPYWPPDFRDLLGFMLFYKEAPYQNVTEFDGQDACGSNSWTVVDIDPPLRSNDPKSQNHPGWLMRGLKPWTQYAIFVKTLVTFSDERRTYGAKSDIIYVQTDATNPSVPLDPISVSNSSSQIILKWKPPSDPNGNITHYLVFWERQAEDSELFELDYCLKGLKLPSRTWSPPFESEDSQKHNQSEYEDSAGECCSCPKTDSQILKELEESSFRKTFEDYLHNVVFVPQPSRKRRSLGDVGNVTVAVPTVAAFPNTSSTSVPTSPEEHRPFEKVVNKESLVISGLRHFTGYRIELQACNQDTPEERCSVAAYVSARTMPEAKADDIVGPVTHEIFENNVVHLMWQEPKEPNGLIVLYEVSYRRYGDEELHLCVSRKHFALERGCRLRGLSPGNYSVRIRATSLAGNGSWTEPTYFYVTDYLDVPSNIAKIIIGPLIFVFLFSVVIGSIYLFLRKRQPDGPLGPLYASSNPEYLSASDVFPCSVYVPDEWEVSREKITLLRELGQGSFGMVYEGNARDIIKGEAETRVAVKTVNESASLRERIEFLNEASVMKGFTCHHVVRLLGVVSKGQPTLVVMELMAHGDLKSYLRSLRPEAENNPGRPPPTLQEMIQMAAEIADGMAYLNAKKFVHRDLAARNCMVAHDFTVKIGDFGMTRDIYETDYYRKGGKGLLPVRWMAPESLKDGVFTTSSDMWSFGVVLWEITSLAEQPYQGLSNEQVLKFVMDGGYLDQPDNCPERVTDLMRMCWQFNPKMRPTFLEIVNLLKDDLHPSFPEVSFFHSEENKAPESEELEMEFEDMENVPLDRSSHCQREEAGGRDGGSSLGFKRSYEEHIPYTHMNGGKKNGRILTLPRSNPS

125I-TyrA14 human insulin (ligand)
Kd [1]: 0.61 nM | Kd [2]: 0.55 nM | Kd [3]: 0.27 nM | Kd [4]: 0.2 nM
